Source: PubChem BioAssay
Casp6 inh = human caspase-6 inhibitors, primary screen, biochemical, VEID-R110 fluorescence, single point, set 2; hit rate 0.53% among 350,000; inhibition, % at 12.5 µM; P55212; AID 686996, 2013; purified caspase-6, Z-VEID-R110 cleavage fluorescence;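 active = mean inhibition across replicates at least about 35%, with every replicate also reaching that limit, limit read from the data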;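 also: 0% = median of neutral control wells and 100% = no fluorescence left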
GSIS activator = GLuc luminescence reporter in INS-1E cells, primary screen for activators of glucose-dependent secretion of insulin | activation, % at 16.6 µM | hit rate 0.61% among 370,000 | AID 743287, 2014 | INS-1E GLuc reporter insulin secretion, 2-3 h;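 active = lowest replicate activation of at least 40%, so every replicate reaches that level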;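 also: 0% = median of neutral control wells and 100% = median of IBMX positive control wells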
RAD52 inh = RAD52 DNA annealing inhibitors, primary screen, biochemical, FRET, single point, set 2; hit rate 0.46% among 360,000; recombinant RAD52 DNA annealing, FRET fluorescence; inhibition, % at 18.7 µM; DNA repair protein RAD52 homolog (Homo sapiens), P43351;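 active = every replicate showing at least 50% inhibition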
PglD inh = C. jejuni PglD acetyltransferase inhibitors, primary screen, biochemical, DTNB colorimetric, single point; UDP-N-acetylbacillosamine N-acetyltransferase PglD (Campylobacter jejuni); inhibition, % at 12.5 µM; purified PglD enzyme, DTNB colorimetric CoA detection; hit rate 0.098% among 360,000; AID 602405, 2012; in the data active = inhibition above about 16%, passing the limit was not always enough
RAD54 branch = inhibitors of human RAD54 branch migration, primary screen, biochemical, fluorescence, single point | AID 602329, 2012 | DNA repair and recombination protein RAD54-like (Homo sapiens), Q92698 | inhibition, % at 10.4 µM | hit rate 0.14% among 360,000 | RAD54 Holliday junction branch migration, FAM/BHQ fluorescence;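 active = mean normalized replicate activity at least 40 and at least half of replicates scoring 40 or more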;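 also: 0% = median of neutral control wells and 100% = median of positive control wells; inhibitors cause a drop in the FAM fluorescence signal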
Yeast UUG start = alters start codon recognition fidelity in yeast. S. cerevisiae UUG-firefly luciferase reporter, luminescence/redox ratio. 350,000 tested, 0.13% active. activity score, % at 18.7 µM. AID 602363;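 active means replicate mean at a twofold rise or more, about +100% in these data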;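 further: firefly luciferase made from a UUG start codon reports start codon fidelity; reporter light over untreated wells divided by growth signal over untreated wells; some hits fall short of that in this replicate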
The depositor's hits bear a star; nt = no result. Most compounds without a hit are left out; they make up all but 1.5% or so of the library.

#	Molecule	Casp6 inh	GSIS activator	RAD52 inh
1	CCN(CC)CCOc1ccc2c(c1)C(=NO)c1cc(OCCN(CC)CC)ccc1-2	nt	8	nt
2	CCN(CC)CCOc1ccc(Br)cc1	nt	20	nt
3	CCn1c(O)c(/C=N/N=C/c2ccc(OC)cc2)c2cc(C3=NNC(=O)CC3)ccc21	0	65*	-118
4	CCN=C1S/C(=C\c2ccc(O)c(OCC)c2)C(=O)N1CC	3	57*	-5
5	CCN=C1S/C(=C\c2cc(OCC)c(O)cc2Br)C(=O)N1CC	nt	20	nt
6	COc1ccc(N2C(=O)[C@@H]3[C@H](C2=O)[C@H]2c4ccccc4C=CN2[C@@H]3C(C)=O)cc1	84*	-1	-33
7	O=c1[nH]c2ccccc2c(O)c1O	8	10	-13
8	COc1ccc(CCNc2oc(-c3ccc(OC)c(OC)c3)nc2P(=O)(OC)OC)cc1OC	nt	68*	nt
9	O=C(CN1C(=O)NC2(CCOc3ccccc32)C1=O)c1ccc(Br)cc1 (configuration not stated)	3	-21	-28
10	O=C(CN1C(=O)NC2(CCOc3ccccc32)C1=O)c1ccc(Cl)cc1 (configuration not stated)	78*	4	-6
11	CSc1nnc2ccc(-c3cccs3)nn12	-1	29	8
12	CCSc1nnc2ccc(-c3cccs3)nn12	0	43*	-1
13	CCCCNC(=O)c1onc(CSc2ccccc2)c1C(=O)NCCCC	-1	-2	-2
14	COc1ccc(-n2c(SCC(N)=O)nnc2-c2ccccc2F)cc1	nt	nt	nt
15	C=CCN1C(=O)CSc2ccc(C(=O)NCc3ccco3)cc21	nt	nt	nt

#	PglD inh	RAD54 branch	Yeast UUG start
1	1	125*	-6
2	5	-7	-21
3	-3	-11	-14
4	nt	nt	nt
5	nt	nt	nt
6	0	-7	-14
7	32*	14	21
8	nt	nt	nt
9	-3	6	-3
10	3	7	-16
11	2	nt	-20
12	3	6	-24
13	-1	-10	-13
14	-1	4	-12
15	2	4	-2

Some of the entries above, set out differently:
[6] COc1ccc(N2C(=O)[C@@H]3[C@H](C2=O)[C@H]2c4ccccc4C=CN2[C@@H]3C(C)=O)cc1
[7] O=c1[nH]c2ccccc2c(O)c1O
[8] COc1ccc(CCNc2oc(-c3ccc(OC)c(OC)c3)nc2P(=O)(OC)OC)cc1OC
[9] O=C(CN1C(=O)NC2(CCOc3ccccc32)C1=O)c1ccc(Br)cc1 (configuration not stated)
compound no.	6	7	8	9
Casp6 inh	84*	8	nt	3
GSIS activator	-1	10	68*	-21
RAD52 inh	-33	-13	nt	-28
PglD inh	0	32*	nt	-3
RAD54 branch	-7	14	nt	6
Yeast UUG start	-14	21	nt	-3

More records.
#	Molecule	Casp6 inh	GSIS activator	RAD52 inh
16	C=CCN1C(=O)CSc2ccc(C(=O)OCC)cc21	nt	69*	nt
17	O=C(O)c1cccnc1SC1CC(=O)N(c2ccc(OC(F)F)cc2)C1=O (configuration not stated)	0	-4	-5
18	Cn1c(C(=O)NCCN2CCOCC2)cc2c(=O)n(C)c3ccccc3c21	0	-5	3
19	CCCN(CCC)CCNC(=O)c1cc2c(=O)n(C)c3ccccc3c2n1C	-2	22	26
20	CN(CCNC(=O)c1cc2c(=O)n(C)c3ccccc3c2n1C)Cc1ccccc1	2	-2	15
21	C[C@@H]1CN([C@@H](C)CO)S(=O)(=O)c2ccc(-c3cccc(C#N)c3)cc2O[C@H]1CN(C)C	-1	5	0
22	C[C@@H]1CN([C@H](C)CO)C(=O)c2cc(NS(=O)(=O)c3cn(C)cn3)ccc2O[C@H]1CN(C)Cc1ccc(C(F)(F)F)cc1	-1	16	3
23	Cc1ccc(NC(=O)Nc2nnc(-c3ccccc3)o2)cc1	38*	6	-1
24	COc1ccc(S(=O)(=O)Nc2ccc3c(c2)C(=O)N([C@H](C)CO)C[C@@H](C)[C@@H](CN(C)C(=O)NC(C)C)OCCCC[C@@H](C)O3)cc1	0	-13	17
25	N#C/C(=C/c1ccco1)C(N)=S	46*	13	-55
26	O=C1NC[C@@H](CCCCN2CCN(CCc3ccc(O)cc3)C(=O)C2=O)N(CCc2ccc(O)cc2)C1=O	40*	8	-9
27	CN(C(=O)COc1ccc(Cl)cc1Br)C1CCCCC1	-1	-31	-2
28	COC(=O)c1ccc(NC(=O)CCCN2C(=O)NC(C)(C)C2=O)cc1	2	1	-7
29	COC(=O)c1ccc(C(=O)OC)c(NC(=O)CN(c2ccc3c(c2)OCO3)S(C)(=O)=O)c1	42*	0	1
30	CC(=O)Nc1nc(C)c(-c2csc(Nc3cccc([N+](=O)[O-])c3)n2)s1	nt	134*	nt

#	PglD inh	RAD54 branch	Yeast UUG start
16	-1	7	-17
17	0	3	0
18	1	34	-23
19	-2	55*	-3
20	4	52*	-2
21	1	-2	-4
22	-1	-10	1
23	nt	nt	nt
24	1	0	-3
25	nt	nt	nt
26	nt	nt	nt
27	-7	-5	-11
28	4	-5	-9
29	3	-2	-5
30	-3	2	-12

(listing goes on)
#	Molecule	Casp6 inh	GSIS activator	RAD52 inh
31	CN(C)CC#Cc1cccc(-c2nc(C(=O)NCc3ccc4c(c3)OCO4)cc3c2[C@H](CCO)N(S(=O)C(C)(C)C)C3)c1 (some centres not stated)	-1	nt	-17
32	O=C(/C=C/c1cccs1)N1CCN(c2ccc(O)cc2)CC1	62*	14	2
33	CC(C)(C)c1nc2ccccc2c2nnc(SCC(=O)Nc3nccs3)n12	nt	77*	nt
34	CC(C)[C@H](NS(=O)(=O)c1ccc(Cl)cc1)C(=O)OCC(=O)c1c(N)n(C)c(=O)n(C)c1=O	2	-8	-19
35	COc1cc2[nH]c(=S)nc(NC3CCCCCC3)c2cc1OC	-5	-6	58*
36	Cc1cc(-c2ccc(Cl)cc2)n2nc(C)cc2n1	0	80*	0
37	Cc1cc(-c2ccc(Br)cc2)n2nc(C)cc2n1	3	43*	-3
38	c1ccc(Cn2c3ccccc3c3nnc(SCCN4CCCCC4)nc32)cc1	2	nt	-8
39	CSc1nnc2c3cc(C)ccc3n(Cc3ccccc3)c2n1	nt	140*	nt
40	CSc1ccccc1NC(=O)Nc1ccccc1	44*	-28	-4
41	CCCc1nc2c3ccccc3ccn2c1CC1CCCCC1	-1	40	-57
42	C[C@@H]1CN([C@@H](C)CO)C(=O)c2cc(C3=CCCCC3)cnc2O[C@H]1CN(C)C(=O)c1ccc(F)cc1	-1	-17	1
43	CCOCCCn1c(SCc2ccccc2)nnc1-c1ccncc1	-3	78*	-6
44	O=C(O)c1cccc(-n2cccc2/C=C2/NC(=O)N(c3cccc(Cl)c3)C2=O)c1	72*	8	-73
45	O=C(O)c1cccc(-n2cccc2/C=C2/NC(=O)N(c3ccc(Cl)cc3)C2=O)c1	84*	4	-52
46	Cc1ccc(NC(=O)COc2cccc(/C=C3\SC(=S)N(CCC(=O)O)C3=O)c2)cc1Cl	42*	-5	-25
47	Cc1ccc(S(=O)(=O)Nc2ccc3c(c2)C(=O)N([C@@H](C)CO)C[C@@H](C)[C@H](CN(C)S(=O)(=O)c2ccc(C)cc2)OCCCC[C@H](C)O3)cc1	-1	1	-29

#	PglD inh	RAD54 branch	Yeast UUG start
31	0	-7	nt
32	nt	nt	nt
33	1	10	-14
34	-4	6	16
35	nt	nt	nt
36	0	0	-3
37	3	6	-15
38	-7	16	0
39	nt	nt	nt
40	-7	1	-12
41	-4	-10	8
42	-2	-4	20
43	-4	5	-9
44	nt	nt	nt
45	nt	nt	nt
46	nt	nt	nt
47	1	-4	-16
